Test results reported in patent US7709513B2, “Benzooxazol-2-one derivatives as lipase and phospholipase inhibitors” (Sanofi-Aventis, priority 2005, dated 2010).

Biological target: T1, endothelial lipase (EL) (Homo sapiens, UniProt Q9Y5X9)
T1 construct: made in house; host or cells: recombinant cell lines (CHO, HEK293); concentrated conditioned medium used as enzyme solution
T1 sequence (Q9Y5X9 21-500): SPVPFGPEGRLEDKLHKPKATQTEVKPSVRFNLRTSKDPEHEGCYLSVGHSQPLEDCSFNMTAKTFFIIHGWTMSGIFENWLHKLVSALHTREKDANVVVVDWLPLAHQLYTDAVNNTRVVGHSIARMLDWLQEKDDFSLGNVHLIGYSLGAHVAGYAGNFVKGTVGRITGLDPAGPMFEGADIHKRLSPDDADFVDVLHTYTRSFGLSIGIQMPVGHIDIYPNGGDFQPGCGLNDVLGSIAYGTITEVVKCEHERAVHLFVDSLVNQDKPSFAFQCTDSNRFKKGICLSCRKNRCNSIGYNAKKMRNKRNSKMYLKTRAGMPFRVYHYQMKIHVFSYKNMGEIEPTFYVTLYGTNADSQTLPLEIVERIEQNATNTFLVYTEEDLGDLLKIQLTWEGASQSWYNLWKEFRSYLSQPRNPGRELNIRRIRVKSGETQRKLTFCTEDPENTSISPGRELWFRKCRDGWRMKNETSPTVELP
Test: Further EL inhibition assay
Format: biochemical
Settings: Bodipy-labelled phospholipid substrate, 37° C., 90 minutes, HPTLC fluorescence readout; EL from conditioned medium of recombinant cell lines (CHO, HEK293)
From the text: EL is released as secretory protein in high concentration into cell culture medium (conditioned medium) by recombinant cell lines (CHO, HEK293). This is employed as enzyme solution after concentration.
The phospholipase-specific substrate 1,2-bis(4,4-difluoro-5,7-dimethyl-4-bora-3a,4a-diaza-s-indacene-3-undecanoyl)-sn-glycero-3-phosphocholine, (manufacturer Molecular Probes) is used to characterize the enzymatic activity of endothelial lipase and the effect of inhibitors. Hydrolysis of the A1 ester linkage of this phospholipid by the enzyme liberates the fluorescent dye Bodipy which can be detected after separation by thin-layer chromatography on an HPTLC plate (silica gel 60, Merck) or directly in the reaction vessel by measuring the fluorescence.
The substrate solution is prepared by dissolving 100 μg of 1,2-bis(4,4-difluoro-5,7-dimethyl-4-bora-3a,4a-diaza-s-indacene-3-undecanoyl)-sn-glycero-3-phospho-choline (manufacturer Molecular Probes) in 100 μl of DMSO and taking up in 2.4 mg of tripalmitin (Sigma) in 393 μl of chloroform which comprises 20 mg/ml DOP-choline (1,2-dioleoyl-sn-glycero-3-phosphocholine). 39.3 μl of this lipid mixture are transferred into a fresh reaction vessel, and the solvent is evaporated off. […] After evaporation of the eluent, the plate is read in a fluorescence scanner. […]

**Q.** `CCCCCCNC(=O)n1c(=O)oc2ccccc21` [Example 6, 2-Oxobenzooxazole-3-hexylcarboxamide] was tested. Which IC50 did it give?
**A.** 0.02 µM
